These results are taken from ChEMBL document CHEMBL3588773, “Volume of Distribution in Drug Design” (J Med Chem, 2015).

The species entered for series [1] is Rattus norvegicus. Description: Half life in bile duct cannulated rat. The settings on record: in vivo.
Series [2] is filed under the species Rattus norvegicus. The series can be described thus: Half life in intact rat. The conditions noted are these: in vivo.

On to `CO[C@]12CC[C@@]3(CC1[C@](C)(O)CCc1cccs1)[C@H]1Cc4ccc(O)c5c4[C@@]3(CCN1CC1CC1)[C@H]2O5` (some centres not stated), for which the values for the t1/2 in the series listed under Rattus norvegicus [1] and in the series listed under Rattus norvegicus [2] were 3.5 h and 7 h, respectively.
